Reference: PubChem BioAssay AID633 (Emory University Molecular Libraries Screening Center, 2007)
This is a selection; strong and weak results do not stand in their true shares. The source made the active and inactive calls.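 The calls were made as follows: active = compounds whose percent inhibition of the receptor-coactivator binding signal exceeds about 50% in the single-dose screen (limit read from the data); inactive = the rest.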

By UniProt entry, the sequences of proteins in these tests, tags left out.
UniProt Q92731, whole entry: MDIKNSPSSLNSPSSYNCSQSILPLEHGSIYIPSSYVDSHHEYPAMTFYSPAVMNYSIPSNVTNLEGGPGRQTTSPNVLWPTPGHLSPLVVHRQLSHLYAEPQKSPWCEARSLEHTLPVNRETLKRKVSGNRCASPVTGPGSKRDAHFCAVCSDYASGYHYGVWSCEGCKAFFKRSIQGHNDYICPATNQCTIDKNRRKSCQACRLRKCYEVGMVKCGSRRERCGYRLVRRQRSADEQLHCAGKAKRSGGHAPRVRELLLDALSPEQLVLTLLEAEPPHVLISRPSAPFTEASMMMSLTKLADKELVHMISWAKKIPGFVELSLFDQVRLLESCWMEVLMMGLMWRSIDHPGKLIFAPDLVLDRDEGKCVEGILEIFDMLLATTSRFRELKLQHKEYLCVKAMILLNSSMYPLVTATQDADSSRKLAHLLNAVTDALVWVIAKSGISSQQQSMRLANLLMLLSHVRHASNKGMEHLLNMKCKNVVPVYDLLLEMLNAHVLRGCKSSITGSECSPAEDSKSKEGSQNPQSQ

These molecules were tested against Estrogen receptor beta (Homo sapiens) (UniProt Q92731) (assay: inhibitors of ERβ-SRC1 coactivator interaction, primary screen, biochemical, TR-FRET, ERβ LBD, SRC-1 peptide (AID 633;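 also: 0% = receptor plus peptide wells without compound and 100% = peptide-only wells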)). Conditions: TR-FRET ER-beta LBD / SRC1-Cy5 peptide binding; at 25.6 µM; active compounds read high.

| Structure (SMILES) | inhibition |
| --- | --- |
| CC1CCN(C(=O)Oc2c(Cl)cc(Cl)c3cccnc23)CC1 | inactive: -4.9% |
